This is an account of results in ChEMBL document CHEMBL4311945, “Development of Dual Chitinase Inhibitors as Potential New Treatment for Respiratory System Diseases” (J Med Chem, 2019).

Amino acid sequences for entries named in this document (tags omitted). A change or cut given only in a name is not applied to a line headed by its entry.
UniProt Q13231: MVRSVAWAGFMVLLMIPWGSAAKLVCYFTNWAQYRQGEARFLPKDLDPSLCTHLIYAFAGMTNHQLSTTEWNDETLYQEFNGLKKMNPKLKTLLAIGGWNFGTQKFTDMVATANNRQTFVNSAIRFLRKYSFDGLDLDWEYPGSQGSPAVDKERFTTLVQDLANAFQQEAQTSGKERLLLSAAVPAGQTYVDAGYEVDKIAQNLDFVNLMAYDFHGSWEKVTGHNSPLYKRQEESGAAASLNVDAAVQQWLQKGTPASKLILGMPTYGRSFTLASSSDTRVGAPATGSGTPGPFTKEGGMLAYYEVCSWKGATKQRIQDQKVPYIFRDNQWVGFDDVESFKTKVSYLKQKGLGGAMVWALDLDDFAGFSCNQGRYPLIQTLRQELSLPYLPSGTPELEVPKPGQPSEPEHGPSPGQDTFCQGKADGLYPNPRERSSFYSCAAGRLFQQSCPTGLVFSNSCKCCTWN

The target in the test is Chitotriosidase-1 (Homo sapiens, UniProt Q13231). The test is described as follows: Inhibition of full-length C-terminal his-tagged human CHIT1 expressed in CHOK1 cells assessed as reduction in chitinolytic activity using 4-methylumbelliferyl-beta-D-N,N',N\"-triacetylchitotrioside as substrate after 60 mins by fluorometric assay. In kind it is cell-based.

`Nc1nnc(N2CCC(N3CCC[C@@H]3Cc3ccc(Cl)cc3)CC2)[nH]1`: the IC50 is 0.059 µM.
